Reference: PubChem BioAssay AID2805 (Sanford-Burnham Center for Chemical Genomics, 2010)
The entries are a selection whose mix differs from that of the whole data set. Calls of active or inactive are those of the source.

What follows are compounds tested on intestinal alkaline phosphatase [Mus musculus] (assay: activators of mouse IAP, primary screen, biochemical, luminescence, uHTS (AID 2805)). Conditions: muIAP, CDP-Star luminescence, 30 min; at 10 µM; hits give high values; 1 = vehicle-only enzyme signal, 0 = enzyme-free wells.
Summary of the method: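 System: Mouse IAP enzyme | Also added: CDP-Star substrate | Dosing: Compounds dispensed in DMSO | Schedule: 30 min enzyme-substrate-compound incubation at room temperature | Technique: Chemiluminescence readout | Control set: DMSO-only wells and no-enzyme negative control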

**Q.** How did the activation factor turn out when `O=[N+]([O-])c1cc([N+](=O)[O-])c(NCC2CCS(=O)(=O)C2)c([N+](=O)[O-])c1` (stereo unspecified) was run?
**A.** Its activation factor is inactive: 0.888.

**Q.** For `COc1ccc(OP(C)(=O)Nc2cccc(Br)c2)cc1` (stereo unspecified), which activation factor is on record?
**A.** The activation factor was inactive: 0.961.

**Q.** For `COc1ccc(NP(C)(=O)Oc2ccccc2OC)cc1` (stereo unspecified), which activation factor is on record?
**A.** The activation factor was inactive: 0.911.

**Q.** With `CN(C)CCOC(=O)C(O)(c1ccccc1)C1CCCCC1` (stereo unspecified) as the compound, how does the activation factor read?
**A.** Its activation factor is inactive: 1.14.

**Q.** `Nc1ccc2c(ccc3cccnc32)n1.O=[N+]([O-])c1cc([N+](=O)[O-])c(O)c([N+](=O)[O-])c1` was tested. Which activation factor did it give?
**A.** Its activation factor is inactive: 0.94.

**Q.** `CP(=O)(OC12CC3CC(CC(C3)C1)C2)OC12CC3CC(CC(C3)C1)C2` was tested. Which activation factor did it give?
**A.** Its activation factor is inactive: 0.824.

**Q.** With `CCOC(=O)c1ccc(NP(C)(=O)Oc2ccc(Cl)cc2)cc1` (stereo unspecified) as the compound, how does the activation factor read?
**A.** Its activation factor is inactive: 1.07.

**Q.** How did the activation factor turn out when `CP(=O)(Nc1ccc(Cl)cc1)Oc1ccc(F)cc1` (stereo unspecified) was run?
**A.** Its activation factor is inactive: 1.03.

**Q.** `COc1ccccc1OP(C)(=O)Nc1ccccc1Br` (stereo unspecified) was tested. Which activation factor did it give?
**A.** The activation factor was inactive: 0.961.

**Q.** How did the activation factor turn out when `CC(C)(C)c1ccc(OP(C)(=O)O)cc1` was run?
**A.** Its activation factor is inactive: 0.995.

**Q.** How did the activation factor turn out when `CN(C)C(=O)c1c([N+](=O)[O-])cc([N+](=O)[O-])cc1[N+](=O)[O-]` was run?
**A.** The activation factor was inactive: 0.956.

**Q.** How did the activation factor turn out when `COc1ccc(OP(C)(=O)Nc2ccc(Br)cc2)cc1` (stereo unspecified) was run?
**A.** The activation factor was inactive: 1.09.

**Q.** `CCN(CC)CC(O)COC(=O)C(O)(c1ccccc1)C1CCCCC1` (stereo unspecified) was tested. Which activation factor did it give?
**A.** Its activation factor is inactive: 1.01.

**Q.** For `CCc1ccc(OP(C)(=O)Nc2cccnc2)cc1` (stereo unspecified), which activation factor is on record?
**A.** The activation factor was inactive: 1.07.

**Q.** With `CP(=O)(Oc1ccccc1)N1CCOC1=O` (stereo unspecified) as the compound, how does the activation factor read?
**A.** Its activation factor is inactive: 0.915.

**Q.** For `O=C(OCCCN1CCCC1)C(O)(c1ccccc1)C1CCCCC1` (stereo unspecified), which activation factor is on record?
**A.** Its activation factor is inactive: 0.901.

**Q.** How did the activation factor turn out when `COc1ccccc1OP(C)(=O)Nc1c(C)n(C)n(-c2ccccc2)c1=O` (stereo unspecified) was run?
**A.** Its activation factor is inactive: 0.919.

**Q.** How did the activation factor turn out when `Cc1c(NP(C)(=O)Oc2ccc(C(C)C)cc2)c(=O)n(-c2ccccc2)n1C` (stereo unspecified) was run?
**A.** Its activation factor is inactive: 0.978.

**Q.** With `O=[N+]([O-])c1cc([N+](=O)[O-])c(Nc2ccccn2)c([N+](=O)[O-])c1` as the compound, how does the activation factor read?
**A.** Its activation factor is inactive: 0.721.

**Q.** For `CCc1ccc(OP(C)(=O)O)cc1`, which activation factor is on record?
**A.** The activation factor was inactive: 0.986.

**Q.** For `COc1ccccc1OP(C)(=O)Nc1ccc(C)cc1C` (stereo unspecified), which activation factor is on record?
**A.** Its activation factor is inactive: 1.03.

**Q.** How did the activation factor turn out when `CP(=O)(Nc1ccccn1)Oc1ccccc1` (stereo unspecified) was run?
**A.** Its activation factor is inactive: 0.944.

**Q.** With `COc1ccccc1OP(C)(=O)Nc1ccc(Br)cc1` (stereo unspecified) as the compound, how does the activation factor read?
**A.** Its activation factor is inactive: 1.

**Q.** For `CN(C)CCOC(=O)C(O)(c1ccccc1)C1CCCC1` (stereo unspecified), which activation factor is on record?
**A.** Its activation factor is inactive: 0.963.

**Q.** How did the activation factor turn out when `COc1ccc(OP(C)(=O)Nc2ccccn2)cc1` (stereo unspecified) was run?
**A.** Its activation factor is inactive: 1.

**Q.** How did the activation factor turn out when `Cc1nc2ccc3ccccc3c2o1.O=[N+]([O-])c1cc([N+](=O)[O-])c(O)c([N+](=O)[O-])c1` was run?
**A.** Its activation factor is inactive: 0.948.

**Q.** Which activation factor does the source give for `CP(=O)(Nc1ccc(Cl)cc1Cl)Oc1ccccc1` (stereo unspecified) here?
**A.** The activation factor was inactive: 1.19.

**Q.** `CP(=O)(OCCOc1ccccc1)OCCOc1ccccc1` was tested. Which activation factor did it give?
**A.** The activation factor was inactive: 1.12.

**Q.** How did the activation factor turn out when `Cc1cc(C)cc(OP(C)(=O)Nc2cccc(C(F)(F)F)c2)c1` (stereo unspecified) was run?
**A.** Its activation factor is inactive: 0.998.

**Q.** With `COc1ccc(OP(C)(=O)Nc2ccccc2Br)cc1` (stereo unspecified) as the compound, how does the activation factor read?
**A.** Its activation factor is inactive: 1.08.

**Q.** With `COc1ccccc1OP(C)(=O)Nc1ccc(C)c(C)c1` (stereo unspecified) as the compound, how does the activation factor read?
**A.** Its activation factor is inactive: 1.01.
